# scFv variants of Ab-14 (heavy chain) against a SARS-CoV-2 spike peptide

Antigen: PDVDLGDISGINAS, a 14-residue peptide of the SARS-CoV-2 spike HR2 region.

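The starting antibody came from a phage panning campaign against this peptide. This is the validation round: designs drawn from the data on random variants, tested in the same kind of assay. Group labels follow the data file (Ctrl: baseline library sampled from a position-specific scoring matrix, with some repeated check sequences; Rand: our label for a block that the file lists under HC and that is probably the random mutants of the ten best first-round binders; GP: Gaussian process model; GPLM: also part of the Gaussian process libraries; HC: hill climbing; Gen: genetic algorithm; Gibbs: Gibbs sampling; a sequence that several methods proposed may carry one label only). AlphaSeq pools MATa yeast showing the antibodies with MATalpha yeast showing the peptide. The frequency of each diploid, read from paired DNA barcodes, reflects how well the two displayed proteins bind. The ratio of observed to expected reads was calibrated, replicate by replicate, on BCL2-family standards whose Kd was known from biolayer interferometry. There are six technical replicates.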

Ab-14 is the parent antibody, in scFv form: VH, then a 15-residue (Gly4Ser)3 linker, then VL. The light chain is unchanged in all variants.
VH: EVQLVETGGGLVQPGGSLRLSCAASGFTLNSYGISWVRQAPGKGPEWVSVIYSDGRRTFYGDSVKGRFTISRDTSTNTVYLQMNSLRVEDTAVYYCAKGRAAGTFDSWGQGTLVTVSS
VL: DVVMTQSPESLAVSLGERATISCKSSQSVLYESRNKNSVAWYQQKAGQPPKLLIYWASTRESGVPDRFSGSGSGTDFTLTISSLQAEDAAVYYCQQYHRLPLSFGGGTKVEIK

Variants are written as CDR1, CDR2 and CDR3 of the heavy chain (limits as in the source). Parent: GFTLNSYGIS, VIYSDGRRTFYGDSVK, GRAAGTFDS.
This list holds designs with at most six substitutions.
Kd is apparent (estimated from mating counts) and averaged on the log scale over replicates with a signal. Smaller is tighter.
An entry "no signal" has no value in the source: the pair was not observed among the diploids in any replicate. This suggests poor binding but is not conclusive.
Of ten entries with the parent sequence, four were seen in most replicates (averages 2.2 nM to 240 nM), three in one and three in none, so single entries are noisy.
As a blank, each scFv also met three strains without target: over all heavy chain designs, 1% of these pairings were detected, typically at 120 nM and seldom below 7.0 nM.
The authors averaged sequences with at least three values out of six and counted those with two or fewer as poor binders.
The range of this assay differs from that of the first round, and the authors advise against merging the two.

Variant GFTLNSYGIS | VIYSDGRRTFYSDSVK | GNECGTFDS [Ctrl] gave no signal (0 of 6 replicates). Variant GFTLDSYGIS | VIYSDGRRTFYGDAVK | GRTAGTFDS [GPLM_HC] gave 9.5 nM (6 of 6 replicates). With GFTLNSYGIS | VIYADGRRTFYGDSVK | GNAAGTFDS [Ctrl] the result was 980 pM (6 of 6 replicates). Variant GFFLNDYGIS | VIYSDGRRTFYGDSVK | GTEAGTFDS [GP_HC] showed 29 nM (6 of 6 replicates). Variant SFDLNSYGIS | VIYSDGKRTFYGDSVK | GRTAGTFDS [GP_Gen] showed 4.1 nM (6 of 6 replicates). For GFDLNSYGIS | VIYSDGRRTFYADAVK | GRQAGTFDS [GP_Gibbs], the assay gave 1.9 nM (6 of 6 replicates). Variant KFDLNSYGIS | VIYSDGRRTFYCDSVK | GRTAGTFDS [GP_Gen] showed no signal (0 of 6 replicates).

Variant GFTLNEYGIS | VIYSDGRRTFYGDAVK | GRFAGTFDS [GPLM_HC] showed 12 nM (6 of 6 replicates). Variant GFTLNEYGIS | VIYSDGRRTFYADSVK | GRFAGTFDK [GPLM_HC] showed 5.4 nM (6 of 6 replicates). Variant GFSLNMYGIS | VIYSDGRRTQYMDSVK | GRAAGTFDS [GP_HC] showed 120 nM (5 of 6 replicates). For GFTLNSYGIS | VIYSDGRRTFYTDSVK | GTTAGTFDW [Ctrl], the assay gave 15 nM (4 of 6 replicates). Variant GFTLNSYGIS | VIYSDGRRTFYDDSVK | GRACGTFDT [Ctrl] showed no signal (0 of 6 replicates). Variant GFDLNSYGIS | VIYSDGRRTFYGDSVK | GRAAGTFQS [GP_HC] gave 1.8 nM (6 of 6 replicates). With GFTLNSYGIS | VIYSDGRRTFYTDSVK | GFAAGTFDL [GP_HC] the result was 91 nM (3 of 6 replicates).

For GFTLDSYGIS | VIYADGRRTFYGDSVK | GRAAGTFTS [GP_HC], the assay gave 1.2 µM (4 of 6 replicates). For GFTLNEYGIS | VIYSDGRRTFYIDAVK | GRAAGTFDS [Ctrl], the assay gave 5.1 nM (2 of 6 replicates). Variant GFDLNSYGIS | VIYSDGRRNFYGDSVK | GRADGKFDS [Ctrl] showed 84 nM (1 of 6 replicates). Variant GFPLNDYGIS | VIYSDGRRTFYADSVK | GRTAGTFDS [GPLM_Gen] gave 1.8 nM (6 of 6 replicates). With GFSLNSYGIS | VIYADGRRTVYGDSVK | GRAAGTFDS [GPLM_Gen] the result was 870 pM (6 of 6 replicates). Variant HFELNEYGIS | VIYSDGRRTFYGDSVK | GRTAGTFDS [GP_Gen] showed 15 nM (6 of 6 replicates). With GFDLNEYGIS | VIYSDGRRTFYDDSVK | GRFAGTFDS [GP_HC] the result was 2.4 nM (6 of 6 replicates).

Variant GFELNSYGIS | VIYSDGRRTFYADMVK | GKAAGTFDV [GP_Gibbs] gave 71 nM (3 of 6 replicates). For GFTLDSYGIS | VIYSDGRRTFYGDSVK | GREAGTFDQ [GP_HC], the assay gave 3.1 nM (6 of 6 replicates). Variant PFTLESYGIS | VIYADGRRTFYGDSVK | GRAAGTFKS [GP_HC] gave no signal (0 of 6 replicates). Variant KFTLNDYGIS | VIYSDGRRTFYEDSVK | GRAAFTFDS [Ctrl] showed no signal (0 of 6 replicates). Variant GFTLNSYGIS | VIYSDGRRTMYGDSVK | GRAAATFDS [Ctrl] showed no signal (0 of 6 replicates). Variant GFSLNSYGIS | VIYSDGRRTFYGDQVK | GRTAGTFDS [GPLM_Gen] showed 490 pM (6 of 6 replicates). Variant GFSLNDYGIS | VIYSDGRRTFYGDSVK | GRAALTFDL [GP_HC] showed no signal (0 of 6 replicates).

Variant GFDLNMYGIS | VIYSDGRRCFYGDSVK | GRAAGTFDS [Ctrl] gave 3.3 nM (4 of 6 replicates). With YFELNSYGIS | VIYADGRRTFYGDSVK | GEAAGTFDS [GP_Gen] the result was 38 nM (5 of 6 replicates). With GFTLNEYGIS | VIYSDGRRTFYSDSVK | GHAAGTFDD [GP_HC] the result was 4.8 nM (6 of 6 replicates). Variant GFSLNSYGIS | VIYSDGRRTFYVDSVK | GSQAGTFDS [GPLM_Gibbs] showed 2.2 nM (6 of 6 replicates). For GFDLNSYGIS | VIYSDGRRTFYGDSVK | GQVAGTFDS [GPLM_Gen], the assay gave 1.4 nM (6 of 6 replicates). Variant GFTLNDYGIS | VIYSDGRRTMYGDSVK | GRCAGTFDS [GP_HC] gave 10 nM (6 of 6 replicates). Variant GFSLNSYGIS | VIYSDGRRTFYADSVK | GRMAGTFDN [GPLM_Gibbs] showed 8.1 nM (5 of 6 replicates).

Variant GFSLNSYGIS | VIYSDGRRTFYGDSVK | GKAAGTFDH [GPLM_Gen] showed 2.2 nM (6 of 6 replicates). Variant GETLNSYGIS | VIYSDGRRTFYGDSVS | GRAAGTFDS [Ctrl] gave 240 nM (1 of 6 replicates). Variant GFNLNEYGIS | VIYSDGRRTFYTDSVK | GRFAGTFDS [GPLM_HC] showed 2.5 nM (6 of 6 replicates). Variant GFTLNSYGIS | VIYSDGRRTFYGDSVK | SGASGTFNS [Ctrl] gave 480 nM (1 of 6 replicates). With GFTVNEYGIS | VIYSDGRRTFYTGSVK | GRFAGTFDS [Rand] the result was no signal (0 of 6 replicates). Variant GFTLNSYGIS | VIYSDGRRTFYGDSVK | GAAAGTFDL [Ctrl] gave no signal (0 of 6 replicates). Variant GFTLNDQGIS | VIYSDGLRTFYGDSVK | GRAAGTFDS [Ctrl] showed 2.2 nM (2 of 6 replicates).

Variant GFVLNSYGIS | VIYSDGRRTFYGDSVK | GTAAGTFDD [Ctrl] showed 650 nM (2 of 6 replicates). Variant GFSLKSYGIS | VIYSDGRRTFYADSVK | GQAAGTFDS [GPLM_Gen] gave 4.2 nM (6 of 6 replicates). Variant GFTLNSYGIS | VIYSDGKRTFYGDSVK | GKEAGTFDT [GP_Gen] gave 3.1 nM (6 of 6 replicates). With GFDLNEYGIS | VIYSDGRRTFYGDSVK | GREAGTFDT [GP_Gen] the result was 900 pM (6 of 6 replicates). Variant GFQLNSYGIS | VIYSDGRRTFYADSVK | GQVAGTFDS [GPLM_Gen] showed 910 pM (6 of 6 replicates).

Excerpt, the final 5 entries:

CDR-H1,CDR-H2,CDR-H3,group,Kd,seen in
GFVLNSYGIS,VIYSDGRRTFYGDSVK,GTAAGTFDD,Ctrl,650 nM,2/6
GFSLKSYGIS,VIYSDGRRTFYADSVK,GQAAGTFDS,GPLM_Gen,4.2 nM,6/6
GFTLNSYGIS,VIYSDGKRTFYGDSVK,GKEAGTFDT,GP_Gen,3.1 nM,6/6
GFDLNEYGIS,VIYSDGRRTFYGDSVK,GREAGTFDT,GP_Gen,900 pM,6/6
GFQLNSYGIS,VIYSDGRRTFYADSVK,GQVAGTFDS,GPLM_Gen,910 pM,6/6

Source: Li et al. 2023 (doi:10.1038/s41467-023-39022-2), MIT Lincoln Laboratory and A-Alpha Bio; data file from the FLAb repository.